Measured values from patent US20240174690A1, “ANNULATED 2-AMINO-3-CYANO THIOPHENES AND DERIVATIVES FOR THE TREATMENT OF CANCER” (BOEHRINGER INGELHEIM INTERNATIONAL GMBH, priority 2021, published 2024).

How the values were obtained:
[1] = test system: KRAS G12V-dependent Ba/F3 cells; test: Ba/F3 proliferation assay, KRAS G12V; conditions: read-out: KRAS G12V Ba/F3 IC50, 72 h, AlamarBlue
Description: Ba/F3 cells are ordered from DSMZ (ACC300, Lot17) and grown in RPMI-1640 (ATCC 30-2001)+10% FCS+10 ng/mL IL-3 at 37° C. in 5% CO2 atmosphere. Plasmids containing KRASG12 mutants (i.e. […], G12C, G12V) are obtained from GeneScript. To generate KRASG12-dependent Ba/F3 models, Ba/F3 cells are transduced with retroviruses containing vectors that harbor KRASG12 isoforms. Platinum-E cells (Cell Biolabs) are used for retrovirus packaging. Retrovirus is added to Ba/F3 cells. To ensure infection, 4 μg/mL polybrene is added and cells are spinfected. Infection efficiency is confirmed by measuring GFP-positive cells using a cell analyzer. Cells with an infection efficiency of 10% to 20% are further cultivated and puromycin selection with 1 μg/mL is initiated. As a control, parental Ba/F3 cells are used to show selection status. Selection is considered successful when parental Ba/F3 cells cultures died. […]
For proliferation assays, Ba/F3 cells are seeded into 384-well plates at 1.5×10^3 cells/60 μL in growth media (RPMI-1640+10% FCS). […] AlamarBlue™ (ThermoFisher), a viability stain, is added and fluorescence measured in the PerkinElmer Envision HTS Multilabel Reader. The raw data are imported into and analyzed with the Boehringer Ingelheim proprietary software MegaLab (curve fitting based on the program PRISM, GraphPad Inc.).

[2] = test system: LOVO cells; test: LOVO CTG proliferation assay (120 h) (CRC, G13D); conditions: read-out: LOVO IC50, CTG 120 h
Description: LOVO CTG Proliferation Assay (120 h) (CRC, G13D)
LOVO cells (ATCC CCL-229) are dispensed into 384-well plates, flat and clear bottom (Greiner, PNr. 781091) at a density of 1000 cells per well in 60 μL DMEM (Sigma D6429)+10% Fetal Calf Serum (HyClone, PNr.: SH30084.03) and incubated at 37° C. in a CO2 incubator overnight. The next day, compounds (10 mM stock in DMSO) are added with the ECHO acoustic liquid handler system (Beckman Coulter), including DMSO controls. Plates are incubated for 120 h, and cell viability is measured using CellTiter-Glo luminescent cell viability reagent (Promega product code G7570). Viability (stated as percent of control) is defined as relative luminescence units RLU of each well divided by the RLU of cells in DMSO controls. IC50 values are determined from viability measurements by non-linear regression using a four-parameter model.

[3] = Metabolic (microsomal) stability assay, human liver microsomes (HLM); conditions: predicted clearance as percent of liver blood flow, 1 μM
Description: The metabolic degradation of the test compound is assayed at 37° C. with pooled liver microsomes (mouse (MLM), rat (RLM) or human (HLM)). The final incubation volume of 48 μL pertime point contains TRIS buffer (pH 7.5; 0.1 M), magnesium chloride (6.5 mM), microsomal protein (0.5 mg/mL for mouse/rat, 1 mg/mL for human specimens) and the test compound at a final concentration of 1 μM. Following a short preincubation period at 37° C., the reactions are initiated by addition of 12 μL beta-nicotinamide adenine dinucleotide phosphate, reduced form (NADPH, 10 mM) and terminated by transferring an aliquot into solvent after different time points (0, 5, 15, 30, 60 min). Additionally, the NADPH-independent degradation is monitored in incubations without NADPH, terminated at the last time point by addition of acetonitrile. The quenched incubations are pelleted by centrifugation (4,000 rpm, 15 min). An aliquot of the supernatant is assayed by LC-MS/MS to quantify the concentration of parent compound in the individual samples.
In vitro intrinsic clearance (CLint, in vitro) is calculated from the time course of the disappearance of the test drug during the microsomal incubation. […]
For better across species comparison the predicted clearance is expressed as percent of the liver blood flow [% QH] […]

[4] = Solubility measurement (DMSO solution method), McIlvaine buffer pH 4.5 or 6.8; conditions: DMSO stock diluted to 250 μM, 24 h shaking at ambient temperature
Description: A 10 mM DMSO stock solution of a test compound is used to determine its aqueous solubility. The DMSO solution is diluted with an aqueous medium (Mcllvaine buffer with pH=4.5 or 6.8) to a final concentration of 250 μM. After 24 h of shaking at ambient temperature a potentially formed precipitate is removed by filtration. The concentration of the test compound in the filtrate is determined by LC-UV methods by calibrating the signal to the signal of a reference solution with complete dissolution of the test compound in acetonitrile/water (1:1) with known concentration.

In the case of `Cc1ccncc1-c1cn(-c2cc(O[C@@H](C)[C@@H]3CCCN3C)nc(-c3noc4c3CCC[C@@]43CCCc4sc(N)c(C#N)c43)n2)nn1`, the IC50 [1] is reported as 5 nM, the IC50 [2] is reported as 323 nM and the “HLM QH” value [3] is reported as <24%. The “solubility pH 4.5” value ([4]; McIlvaine buffer pH 4.5) was <1 μg/ml and the “solubility pH 6.8” value ([4]; McIlvaine buffer pH 6.8) was <1 μg/ml.
